Assay results reported in patent EP4775596A1, “CYSTEINE ENGINEERED ANTIBODY AND IMMUNOCONJUGATE” (priority 2023, dated 2025).

What was measured:
[1] = test system: Human gastric cancer cells NCI-N87; test: In vivo efficacy evaluation in tumor-bearing mice; parameters: species or system CB17-SCID mice; conditions: DAR2 ADC study; NCI-N87 subcutaneous, administered once on day 12, dose shown in FIG. 9, tumor volume every three days
Method: Transgenic mice with high expression of Her2 were used to determine the in vivo efficacy of ADCs. Human gastric cancer cells NCI-N87 (purchased from ATCC) were subcutaneously transplanted into CB17-SCID mice (6-8 weeks old, Beijing Vital River Laboratory Animal Technology Co., Ltd.), which were inoculated with 2×10^6 cells; the tumor size was measured and monitored using a vernier caliper and average tumor volume was calculated.
The tumor volume was measured every three days for each administration group.

[2] = test system: Human mammary adenocarcinoma SK-BR-3 cells; test: In vitro cell proliferation assay (CellTiter-Glo, 6 days); format: cell-based; conditions: for EC50: killing of SK-BR-3 cells, 6 days

Substance | tumor inhibitory effect / efficacy [1] | killing effect ([2]; SK-BR-3 cells, comparison between ADC groups, in words) | EC50 ([2]; Table 8-1) | EC50 ([2]; Table 8-2)
TZB-Dxd-DAR8: DAR8 control ADC prepared from Trastuzumab fully reduced with TCEP and mc-GGFG-Dxd | strongest tumor inhibitory effect | strongest killing effect | 0.066 nM | 0.033 nM
TZB-Dxd-DAR4: Randomly conjugated control ADC of Trastuzumab and mc-GGFG-Dxd with an average DAR of 4 | least effective | – | 0.11 nM | 0.17 nM
